Laboratory results published in ChEMBL document CHEMBL4000227, “Structure activity relationships of benzylproline-derived inhibitors of the glutamine transporter ASCT2” (Bioorg Med Chem Lett, 2017).

Each molecule was assayed against T1, Amino acid transporter (Rattus norvegicus, UniProt Q9Z1J7) (assay: Inhibition of rat ASCT2 expressed in HEK293 cells assessed as inhibition of L-alanine/Na+ exchange by measuring reduction in SCN anion inward current in presence of NaCl and NaSCN by whole cell patch-clamp method). Conditions: read-out: Ki(app).
T1 sequence (Q9Z1J7 whole entry): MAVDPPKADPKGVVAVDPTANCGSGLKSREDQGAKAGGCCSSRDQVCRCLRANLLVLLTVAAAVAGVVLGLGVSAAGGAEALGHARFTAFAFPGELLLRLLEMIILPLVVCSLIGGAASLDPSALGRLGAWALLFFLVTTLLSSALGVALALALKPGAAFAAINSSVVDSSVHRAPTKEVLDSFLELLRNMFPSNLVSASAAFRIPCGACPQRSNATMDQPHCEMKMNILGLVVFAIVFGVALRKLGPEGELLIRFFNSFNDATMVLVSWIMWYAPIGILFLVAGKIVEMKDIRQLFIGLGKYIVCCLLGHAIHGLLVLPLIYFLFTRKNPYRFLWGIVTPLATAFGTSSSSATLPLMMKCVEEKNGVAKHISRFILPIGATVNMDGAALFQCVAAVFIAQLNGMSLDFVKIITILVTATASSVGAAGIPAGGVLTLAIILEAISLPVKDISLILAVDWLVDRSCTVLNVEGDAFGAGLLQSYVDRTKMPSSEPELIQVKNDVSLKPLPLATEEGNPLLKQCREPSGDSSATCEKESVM
Type: cell-based
Procedure, shortened: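 Whole-cell currents from HEK293T cells transiently expressing rat ASCT2, held at 0 mV; bath 140 mM NaCl, pipette 135 mM NaSCN plus 10 mM alanine. Outward currents recorded over a range of compound concentrations, normalized to the response at 1 mM, and fitted as dose-response relationships to obtain apparent affinity.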
`O=C(O)C1C[C@@H](Cc2ccc(C(F)(F)F)cc2)CN1` (single isomer, unassigned) was tested, and the Ki was 360 µM.
With `O=C(O)C1C[C@@H](Cc2ccccc2Br)CN1` (single isomer, unassigned) the Ki was 25 µM.
For `O=C(O)C1C[C@@H](Cc2ccccc2[N+](=O)[O-])CN1` (single isomer, unassigned), the Ki was 373 µM.
`O=C(O)C1C[C@@H](Cc2cccc(C(F)(F)F)c2)CN1` (single isomer, unassigned) showed a Ki of 77 µM.
